Test results published in PubChem BioAssay AID463141 (The Scripps Research Institute Molecular Screening Center, 2010).
Only a part is listed here, and it is no random draw. Activity calls are given as the source filed them.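 The calls were made as follows: active = activation above the mean of all tested compounds plus 3 SD (cut at about 21% in these data); inactive = the rest.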

The chains behind the UniProt entries cited, without tags or fusion partners. Where a name states a change or a piece, a line headed by the entry shows the natural chain unless it says otherwise.
UniProt P42574: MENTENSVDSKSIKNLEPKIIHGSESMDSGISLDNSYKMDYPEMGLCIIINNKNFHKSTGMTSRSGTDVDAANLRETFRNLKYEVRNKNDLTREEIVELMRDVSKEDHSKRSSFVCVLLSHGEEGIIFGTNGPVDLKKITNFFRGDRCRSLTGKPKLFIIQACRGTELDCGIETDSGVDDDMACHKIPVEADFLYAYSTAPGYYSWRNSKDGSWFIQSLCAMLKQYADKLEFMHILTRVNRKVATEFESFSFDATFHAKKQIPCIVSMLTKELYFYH

Each compound was assayed against Caspase-3 (Homo sapiens) (UniProt P42574) (assay: activators of human procaspase-3 D3A mutant, primary screen, biochemical, absorbance, PC-3 D3A mutant, single concentration (AID 463141;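 also: 0% = DMSO alone and 100% = DMSO wells spiked with extra 5 µM PC-3 D3A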)). Conditions: recombinant procaspase-3 D3A, Ac-DEVD-pNA absorbance 405 nm; at 8.5 µM; hits give high values.
For `CC(NC(=O)COC(=O)C(O)(c1ccccc1)c1ccccc1)c1ccccc1` (centres undefined), the activation was inactive: 3.73%. In the case of `Cc1ccccc1OP(=O)(Nc1ccccn1)Oc1ccccc1C`, the activation is reported as inactive: -4.05%. In the case of `CN(C)C(=O)Oc1noc2ccccc12`, the activation is reported as inactive: -8.55%. In the case of `O=C(OC1CN2CCC1CC2)c1ccccc1` (centres undefined), the activation is reported as inactive: -1.69%. In the case of `CCC(=O)N1C2C3N(C(=O)CC)C1C1N(C(=O)CC)C(C(N1C(=O)CC)N3C(=O)CC)N2C(=O)CC`, the activation is reported as inactive: 0.67%. In the case of `COC(=O)c1cc2c(s1)N=C(c1ccccc1)N(C)P2(=O)N1CCOCC1` (centres undefined), the activation is reported as inactive: 5%. For `Cc1ccc(OP(=O)(Nc2ccccn2)Oc2ccc(C)cc2)cc1`, the activation was inactive: -0.3%. For `CC(=O)NC(SC(=S)N(CC(C)C)CC(C)C)C(Cl)(Cl)Cl` (centres undefined), the activation was inactive: -1.88%. `c1ccc(-c2nn[nH]n2)c(-c2nn[nH]n2)c1` was tested, and the activation was inactive: 2.95%. With `CCOC(=O)NC(Sc1ccccc1)C(Cl)(Cl)Cl` (centres undefined) the activation was inactive: 7.7%. For `Cc1ccc(NP(=O)(Oc2cccc(C)c2)Oc2cccc(C)c2)nc1`, the activation was inactive: -4.05%. `O=C(NC1CCS(=O)(=O)C1)NP(=S)(Oc1ccccc1)Oc1ccccc1` (centres undefined) was tested, and the activation was inactive: 6.44%. In the case of `CCNC(=S)/N=C(\N)N[N+](=O)[O-]`, the activation is reported as inactive: 2.69%. With `CC(=O)Nc1ccc([As](=O)(O)O)c(O)c1` the activation was inactive: 2.34%. For `CC(=O)Nc1ccc(Oc2c([N+](=O)[O-])cc([N+](=O)[O-])cc2[N+](=O)[O-])cc1`, the activation was inactive: 3.38%. For `Cc1ccccc1CN(C)C(=O)COC(=O)C(O)(c1ccccc1)c1ccccc1`, the activation was inactive: -3.45%. `C[C@H]1OP(=O)(Oc2ccccc2)C[C@@H]2O[C@@H]21` (some centres undefined) was tested, and the activation was inactive: 7.94%. For `C[C@@H]1C=CCP(=O)(Oc2ccccc2)O1` (some centres undefined), the activation was inactive: 6.48%. `CC(=O)c1ccc(N2CC2c2ccncc2)cc1` (centres undefined) was tested, and the activation was inactive: -7.74%. `CC(C)(C)C(=O)NC(Sc1ccccc1)C(Cl)(Cl)Cl` (centres undefined) was tested, and the activation was inactive: -3.56%. `O=P1(Nc2nc3ccc(Cl)cc3s2)COc2ccccc2O1` (centres undefined) was tested, and the activation was inactive: 0.3%. `CCOc1ccc(C2=NCC(CBr)S2)cc1` (centres undefined) was tested, and the activation was inactive: -7.09%. In the case of `c1nnnn1CCn1cnnn1`, the activation is reported as inactive: 6.11%. With `O=P(Nc1nccs1)(c1ccccc1)c1ccccc1` the activation was inactive: -2.56%. In the case of `CC(C)C(=O)NC(Sc1ccccc1)C(Cl)(Cl)Cl` (centres undefined), the activation is reported as inactive: 11%. With `O=C(OC1CN2CCC1CC2)c1cccc(Cl)c1` (centres undefined) the activation was inactive: -1.36%. In the case of `C(Cc1nn[nH]n1)Cc1nn[nH]n1`, the activation is reported as inactive: -1.08%. `Nc1ccc([As](=O)(O)c2ccc([N+](=O)[O-])cc2)cc1` was tested, and the activation was inactive: 4.9%. `O=[As](O)(c1ccccc1)c1ccc(O)cc1` was tested, and the activation was inactive: 0.27%. For `O=[N+]([O-])c1ncn(CCn2cnc([N+](=O)[O-])n2)n1`, the activation was inactive: 3.6%. For `CC(=O)NC(SC(=S)N(C)C)C(Cl)(Cl)Cl` (centres undefined), the activation was inactive: -7.64%. In the case of `O=[N+]([O-])c1ccc(O)c(/C=N/Nc2ccc([N+](=O)[O-])cc2[N+](=O)[O-])c1`, the activation is reported as inactive: -0.81%. In the case of `O=P(Nc1nc2ccccc2s1)(c1ccccc1)c1ccccc1`, the activation is reported as inactive: -1.38%. In the case of `C[C@H]1OP(=O)(Oc2ccccc2)[C@H](O)[C@H](O)[C@H]1N=[N+]=[N-]` (some centres undefined), the activation is reported as inactive: 1.33%. `CN(C)C1(CNC(=O)c2ccc(Cl)c(S(N)(=O)=O)c2)CCCCC1` was tested, and the activation was inactive: 5.96%. `O=P(Nc1ccccn1)(c1ccc(Br)cc1)c1ccc(Br)cc1` was tested, and the activation was inactive: -0.17%. In the case of `O=[N+]([O-])c1cccc(NC2=NCC(CBr)S2)c1` (centres undefined), the activation is reported as inactive: -10.4%. In the case of `O=[N+]([O-])c1ncn(CCn2ncnc2[N+](=O)[O-])n1`, the activation is reported as inactive: 3.2%. With `CC(C)(C)C(=O)NC(Sc1ccncn1)C(Cl)(Cl)Cl` (centres undefined) the activation was inactive: -17.4%. For `O=C(Nc1cc([As](=O)(O)O)ccc1O)c1ccccc1`, the activation was inactive: 3.5%. In the case of `CC1CCN(C(=O)Oc2c(Cl)cc(Cl)c3cccnc23)CC1`, the activation is reported as inactive: -2.76%. In the case of `CC(C)=N/N=C(\N)N[N+](=O)[O-]`, the activation is reported as inactive: 1.6%. With `CN(C)C(=O)OCCc1n(C)cc[n+]1C` the activation was inactive: -12.6%. For `CCN(/C(=N/P(=O)(N1CCOCC1)N1CCOCC1)N1CCOCC1)c1ccc(OC)cc1`, the activation was inactive: 6.06%. `Nc1ccc([As](=O)(O)c2ccc(N)cc2)cc1` was tested, and the activation was inactive: 2.4%. `C[N+]1=C2C=CC=CC=C2SC12C([N+](=O)[O-])=CC([N+](=O)[O-])=C[C-]2[N+](=O)[O-]` (centres undefined) was tested, and the activation was inactive: -27.9%. With `Cc1ccc(NP(=O)(Oc2ccccc2)Oc2ccccc2)nc1` the activation was inactive: -5.67%. With `O=[N+]([O-])c1cc([N+](=O)[O-])c(CCNc2ccccc2)c([N+](=O)[O-])c1` the activation was inactive: -10%. With `CCc1nc2c(n1)c1c(non1O)c1c2no[n+]1[O-]` the activation was inactive: 1.54%. In the case of `CC(=O)N1C2C3N(C(C)=O)C1C1N(C(C)=O)C(C(N1C(C)=O)N3C(C)=O)N2C(C)=O`, the activation is reported as inactive: 5.77%. `O=[N+]([O-])c1cccc2n[nH]nc12` was tested, and the activation was inactive: 12.8%. In the case of `COc1ccc(C2=NCC(CBr)S2)cc1` (centres undefined), the activation is reported as inactive: -10.5%. `Oc1ccccc1CNc1ccccn1` was tested, and the activation was inactive: -2.51%. With `O=C(NC(Sc1ccncn1)C(Cl)(Cl)Cl)c1ccccc1` (centres undefined) the activation was inactive: -25.4%. In the case of `Cc1c2non([O-])c-2c(C)[n+](=O)[n+]1[O-]`, the activation is reported as inactive: -23.9%. In the case of `Nc1cc(N)c2nonc2c1[N+](=O)[O-]`, the activation is reported as inactive: 8.21%. `CC(C)CC(=O)NC(Sc1ccc(Cl)cc1)C(Cl)(Cl)Cl` (centres undefined) was tested, and the activation was inactive: 3.51%. With `CN1CCCC(OC(=O)C(c2ccccc2)c2ccccc2)C1` (centres undefined) the activation was inactive: 0.34%. In the case of `Clc1ccc(Cl)c(NC2=NCC(CBr)S2)c1` (centres undefined), the activation is reported as inactive: -1.68%. For `COc1ccccc1OP(=O)(Nc1ccc(C)cn1)Oc1ccccc1OC`, the activation was inactive: -3.37%. In the case of `Cc1ccc(OP(=O)(Nc2nccs2)Oc2ccc(C)cc2)cc1`, the activation is reported as inactive: -8%. In the case of `CN(C(=O)Cc1ccc(Cl)c(Cl)c1)[C@H]1CCCC[C@H]1N1CCCC1`, the activation is reported as inactive: 0.79%. For `Cc1ccc(N/C(=N/P(=O)(N2CCOCC2)N2CCOCC2)N2CCOCC2)cc1`, the activation was inactive: 15.6%. For `NC(=O)c1cc([N+](=O)[O-])cc([N+](=O)[O-])c1N`, the activation was inactive: 0.63%.
